Bioassay records deposited in PubChem by Broad Institute.
Sampled rows, rich in hits. Any-hit rate of the full collection: about 2.2%.
SIRT5 inh – sirtuin-5 (human) deacylase inhibition; Purified SirT5, succinyl-peptide AMC, trypsin-coupled fluorescence; AID 652115; Q9NXA8; 330,000 compounds, 1.1% hits; inhibition, % at 15 µM; in the data active = inhibition above about 15%
FGF22 binding – FGF22 (human) thermal shift binding | 340,000 compounds, 1.5% hits | AID 651658 | activity (Tm shift, normalised), % at 9.99 µM | recombinant FGF22 thermal shift, SYPRO orange fluorescence; percent of sucrose octasulfate shift, DMSO zero;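 active = mean Tm shift, scaled 0 neutral to 100 positive control, at about 1.3% or above, every replicate too, limit read from the data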
PDI turbidity – inhibitors of human protein disulfide isomerase | P07237 | PDI insulin aggregation turbidity, A650, 90 min | inhibition, % at 10 µM | 350,000 compounds, 0.052% hits | AID 588391;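 active = mean inhibition across replicates of 30% or more, whatever share of single replicates reach that level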
UUG fidelity – modulators of start codon recognition fidelity in yeast; AID 602363; activity score, % at 18.7 µM; S. cerevisiae UUG-firefly luciferase reporter, luminescence/redox ratio; actives 0.13% (n = 350,000);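 active = replicate mean at a twofold rise or more, about +100% in these data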;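 note: firefly luciferase made from a UUG start codon reports start codon fidelity; reporter light over untreated wells divided by growth signal over untreated wells; some hits fall short of that in this replicate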
ERp5 block – blocks human ERp5 reductase activity on insulin. Q15084. ERp5 insulin aggregation, absorbance 650 nm, 90 min. inhibition, % at 9.99 µM. 350,000 compounds, 0.05% hits;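 active = mean replicate inhibition above about 25%, with every replicate also reaching it, limit read from the data, passing the limit was not always enough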
S100A4 MyoIIA – inhibitors of human S100A4 binding to myosin IIA peptide | P26447 | S100A4/TAMRA-MyoIIA peptide fluorescence polarization | inhibition, % at 10.7 µM | 360,000 compounds, 0.14% hits;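 active = mean inhibition of at least 70% across replicates, with every replicate also reaching that level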
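incubation = readout 5 min after mixing, signal stable up to 60 min | system = S100A4 monomer protein | buffer or medium = HEPES pH 7.2 with CaCl2, KCl, NaCl, DTT, Triton | benchmarks = neutral control DMSO, positive control TFP | also added = fluorescent myosin IIA peptide, 5 nM | compound dosing = one concentration per compound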
* = called active by the depositor; / = not tested or not shown.

SMILES	SIRT5 inh	FGF22 binding	PDI turbidity	UUG fidelity	ERp5 block	S100A4 MyoIIA
COc1cccc(CNC(=O)C[C@@H]2CC[C@@H](NC(=O)C3CC3)[C@@H](CO)O2)c1	0	0	/	-10	0	6
NNc1ccccc1C(F)(F)F	0	43*	-4	/	2	1
Cc1cn2c(N)c(C=C3C=C(Cl)C(=O)C(Cl)=C3)c(=O)nc2s1	20*	0	6	/	3	-7
COc1ccc(OC)c(-n2c(-c3cnccn3)n[nH]c2=S)c1	/	/	1	-11	/	/
COc1ccc(OC)c(-n2c(Cn3c(-c4ccccn4)nc4ccccc43)n[nH]c2=S)c1	0	44*	-1	1	-2	2
C[C@@H]1CN([C@@H](C)CO)C(=O)Cc2cc(N(C)C)ccc2O[C@H]1CN(C)C(=O)Nc1ccc2c(c1)OCO2	5	-1	/	-2	-1	-11
CC1CN(C(=O)/C(C#N)=C2\N=C(NC(=O)c3ccccc3Cl)c3ccccc32)CC(C)O1 (stereo unspecified)	21*	0	/	/	0	0
CC1CN(C(=O)/C(C#N)=C2\N=C(NC(=O)c3ccc(F)cc3)c3ccccc32)CC(C)O1 (stereo unspecified)	2	0	0	0	0	0
O=C(C1CCCCC1)N1[C@@H](CO)[C@@H](c2ccccc2)C12CN(Cc1ccc(F)cc1)C2	-8	/	/	/	/	/
Cc1ccc(NC(=S)NN2CCN(C)CC2)c(C)c1	-4	43*	1	/	-6	1
COc1ccc(C)cc1NC(=S)NN1CCN(C)CC1	-2	0	-1	/	-4	-1
CC1(c2ccccc2)NC(=O)N(CC(=O)Nc2ccc([N+](=O)[O-])cc2)C1=O (stereo unspecified)	-2	43*	-5	9	-8	7
Cc1ccc(S(=O)(=O)N(C)C[C@@H]2OCCCC[C@@H](C)Oc3ccc(NC(=O)Nc4ccccc4)cc3C(=O)N([C@@H](C)CO)C[C@@H]2C)cc1	2	0	/	-21	1	0
COc1ccc(-c2ccc(NCCN3CCOCC3)nn2)cc1OC	16*	0	11	7	1	0
COc1cc(CNCCCN2CCOCC2)ccc1OCC(=O)NC(C)(C)C	0	44*	3	/	-1	-5
COc1cc(CNCCN2CCOCC2)ccc1OCC(=O)NC(C)(C)C	0	43*	-1	-13	4	4
CCOc1cc(CNCCCN2CCOCC2)ccc1OCC(=O)NC(C)(C)C	2	42	12	-12	-2	3
O=C(C[C@@H]1C[C@H]2c3cc(NC(=O)C4CCC4)ccc3O[C@H]2[C@H](CO)O1)NCc1cc(F)ccc1F	5	0	/	0	-4	-51
Cc1noc(C)c1S(=O)(=O)Nc1ccc2c(c1)C(=O)N([C@@H](C)CO)C[C@H](C)[C@@H](CN(C)Cc1ccc(C(F)(F)F)cc1)OCCCC[C@@H](C)O2	25*	0	/	/	1	-3
Cc1noc(C)c1S(=O)(=O)Nc1ccc2c(c1)C(=O)N([C@H](C)CO)C[C@H](C)[C@@H](CN(C)Cc1ccc(C(F)(F)F)cc1)OCCCC[C@H](C)O2	25*	0	/	/	-3	4
CC(C)CC#Cc1ccc2c(c1)O[C@H](CN(C)S(=O)(=O)c1ccc(F)cc1)[C@@H](C)CN([C@H](C)CO)S2(=O)=O	8	0	/	-10	1	-3
C[C@@H]1CN([C@@H](C)CO)S(=O)(=O)c2ccc(C#Cc3ccncc3)cc2O[C@@H]1CN(C)S(=O)(=O)c1ccc(F)cc1	-14	0	/	-16	4	-12
COc1ccc(S(=O)(=O)N(C)C[C@@H]2Oc3cc(C#CC4CCCC4)ccc3S(=O)(=O)N([C@H](C)CO)C[C@H]2C)cc1	19*	0	/	-5	-6	22
C[C@@H]1CN([C@H](C)CO)S(=O)(=O)c2ccc(C#Cc3ccc(F)cc3)cc2O[C@@H]1CN(C)S(=O)(=O)c1ccc(F)cc1	30*	0	/	-26	-3	-7
C[C@@H]1CN([C@H](C)CO)S(=O)(=O)c2ccc(C#Cc3ccc(F)cc3)cc2O[C@H]1CN(C)S(=O)(=O)c1ccc(F)cc1	26*	0	/	-20	-6	2
New compounds follow.
SMILES	SIRT5 inh	FGF22 binding	PDI turbidity	UUG fidelity	ERp5 block	S100A4 MyoIIA
C[C@H](CO)N1C[C@H](C)[C@H](CN(C)S(=O)(=O)c2ccc(F)cc2)Oc2cc(C#Cc3ccc(F)cc3)ccc2S1(=O)=O	27*	0	/	-27	-1	3
COc1ccccc1-c1ccc(C2[C@@H]3CN(S(=O)(=O)c4ccccc4)C[C@H]2N3)cc1 (stereo partly specified)	5	/	/	/	7	/
CC(C)C#Cc1cnc2c(c1)C(=O)N([C@H](C)CO)C[C@H](C)[C@@H](CN(C)C(=O)Nc1cccc(F)c1)O2	7	0	/	45	1	-7
CCCNC(=O)C[C@H]1CC[C@H]2[C@H](COc3ccc(NS(=O)(=O)CC)cc3C(=O)N2C)O1	-1	0	/	0	-2	10
CN(C)CC#Cc1ccc([C@H]2[C@H](CO)N3CCCCN(C(=O)Nc4ccccc4F)C[C@@H]23)cc1	/	/	/	8	/	/
C[C@H]1CN([C@@H](C)CO)S(=O)(=O)c2ccc(C#Cc3ccc(F)cc3)cc2O[C@@H]1CN(C)S(C)(=O)=O	13*	1	/	10	1	-25
COCC#Cc1ccc2c(c1)O[C@@H](CN(C)CC1CCCC1)[C@H](C)CN([C@@H](C)CO)S2(=O)=O	24*	0	/	0	6	-10
COCC#Cc1ccc2c(c1)O[C@H](CN(C)CC1CCCC1)[C@@H](C)CN([C@H](C)CO)S2(=O)=O	9	0	/	6	-6	0
CCCN(C)C[C@@H]1Oc2cc(C#CC3(O)CCCC3)ccc2S(=O)(=O)N([C@H](C)CO)C[C@@H]1C	6.2*	0	/	10	3	-9
C[C@@H]1CN([C@H](C)CO)S(=O)(=O)c2ccc(C#Cc3ccc(F)cc3)cc2O[C@@H]1CN(C)CC1CC1	10	/	/	8	7	-32
C[C@H](CO)N1C[C@H](C)[C@H](CN(C)CC2CC2)Oc2cc(C#Cc3ccc(F)cc3)ccc2S1(=O)=O	17*	/	/	8	0	5
O=C(NCC[C@H]1CC[C@H](NS(=O)(=O)c2ccccc2)[C@@H](CO)O1)c1ccc2c(c1)OCO2	-1	0	/	19	-4	4
CO[C@@H]1CN(C)C(=O)c2ccc(NC(=O)Nc3ccccc3Cl)cc2OC[C@@H](C)N(Cc2ccccc2C(=O)O)C[C@H]1C	/	0	/	-12	-1	1
C[C@H]1CN([C@@H](C)CO)S(=O)(=O)c2ccc(C#CC3CC3)cc2O[C@H]1CN(C)Cc1ccc(F)cc1	13	0	/	16	4	3

One compound at a time, from the list above. Order of values: SIRT5 inh	FGF22 binding	PDI turbidity	UUG fidelity	ERp5 block	S100A4 MyoIIA
CCOc1cc(CNCCCN2CCOCC2)ccc1OCC(=O)NC(C)(C)C in the list: 2	42	12	-12	-2	3
CCCN(C)C[C@@H]1Oc2cc(C#CC3(O)CCCC3)ccc2S(=O)(=O)N([C@H](C)CO)C[C@@H]1C in the list: 6.2*	0	/	10	3	-9
Cc1ccc(S(=O)(=O)N(C)C[C@@H]2OCCCC[C@@H](C)Oc3ccc(NC(=O)Nc4ccccc4)cc3C(=O)N([C@@H](C)CO)C[C@@H]2C)cc1 in the list: 2	0	/	-21	1	0
C[C@H](CO)N1C[C@H](C)[C@H](CN(C)S(=O)(=O)c2ccc(F)cc2)Oc2cc(C#Cc3ccc(F)cc3)ccc2S1(=O)=O in the list: 27*	0	/	-27	-1	3
Cc1noc(C)c1S(=O)(=O)Nc1ccc2c(c1)C(=O)N([C@@H](C)CO)C[C@H](C)[C@@H](CN(C)Cc1ccc(C(F)(F)F)cc1)OCCCC[C@@H](C)O2 in the list: 25*	0	/	/	1	-3
